The source of these data is ChEMBL document CHEMBL1131037, “Structure-based design, synthesis, and biological evaluation of irreversible human rhinovirus 3C protease inhibitors. 2. Peptide structure-activity studies” (J Med Chem, 1998).

In this assay the target is T1, Human rhinovirus A protease (Human rhinovirus sp.) (UniProt Q4U254).
T1 sequence (whole entry): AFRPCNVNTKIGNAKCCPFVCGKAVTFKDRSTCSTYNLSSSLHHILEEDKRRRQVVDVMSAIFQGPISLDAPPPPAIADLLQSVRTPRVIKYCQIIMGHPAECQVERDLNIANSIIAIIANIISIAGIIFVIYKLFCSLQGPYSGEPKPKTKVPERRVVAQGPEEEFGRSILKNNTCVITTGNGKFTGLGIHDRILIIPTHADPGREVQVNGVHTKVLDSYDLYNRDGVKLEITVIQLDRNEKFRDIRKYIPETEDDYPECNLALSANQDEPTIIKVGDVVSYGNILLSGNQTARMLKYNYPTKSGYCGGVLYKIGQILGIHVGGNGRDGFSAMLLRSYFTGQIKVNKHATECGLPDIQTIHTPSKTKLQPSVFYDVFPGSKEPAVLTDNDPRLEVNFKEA
As to the kind of experiment: Binding affinity on human Rhinovirus 3C protease (rhinovirus serotype 2).

In turn, `CCOC(=O)/C=C/[C@H](CCC(N)=O)NC(=O)[C@H](Cc1ccccc1)NC(=O)[C@H](CC(C)C)NC(=O)OCc1ccccc1` gave a K obs / 1 of 3400 M⁻¹ s⁻¹.
